Test system: CT26 allografts
Details: 9 mg kg^−1 i.v., female Balb/c mice; experiment stopped on day 19, drop in body weight
Protocol: All experiments were executed according to the regulation of the Ethics Committee for the Care and Use of Laboratory Animals at the Medical University Vienna. 8–12 weeks old BALB/c were kept in a pathogen-free environment with a 12 h light dark-cycle with ad libitum access to food and water. Every procedure was performed in a laminar airflow under sterile condition. Tumor growth and possible side effects of drug treatment were evaluated by daily recording the tumor size by caliper measurement according to the formula length × width^2/2 and parameters of the animal's overall health conditions.
CT26 cells (5 × 10^5 cells in 50 μl serum-free medium) were injected s.c. into the right flank of female BALB/c mice. […] Asa was treated orally using 50 mg kg^−1 in 5% DMSO/0.9% NaCl. Every day, the animals were monitored for the overall health conditions. Additionally, tumor size was measured. In case of a decreased body weight of ∼20% or ulcerated tumors, animals were sacrificed by cervical dislocation and tumors as well as organs were collected.

SMILES: O=C1[O][Pt]2([NH][C@@H]3CCCC[C@H]3[NH]2)[O]C1=O [Oxaliplatin, oxaliplatin]
- Toxicity: toxic side effects

Source: article PMC10334471, “Tumor-targeted dual-action NSAID-platinum(IV) anticancer prodrugs” (Inorganic Chemistry Frontiers, 2023)
